Literature values as cited in patent publication US20110195110A1 (published 2011).

System: Imatinib-resistant mutant forms of Bcr-Abl
Conditions: 15 Imatinib-resistant mutations tested in cell based assays

Cc1nc(Nc2ncc(C(=O)Nc3c(C)cccc3Cl)s2)cc(N2CCN(CCO)CC2)n1 [BMS-354825]
inhibition of Imatinib-resistant mutant forms of the protein: inhibit all the mutant forms of the protein, except T3151
